Measured values taken from BindingDB's records for patent US8633204 (Pfizer, 2014).

Chains of the proteins cited; added tags and fusions are not shown.
UniProt P42337, whole entry: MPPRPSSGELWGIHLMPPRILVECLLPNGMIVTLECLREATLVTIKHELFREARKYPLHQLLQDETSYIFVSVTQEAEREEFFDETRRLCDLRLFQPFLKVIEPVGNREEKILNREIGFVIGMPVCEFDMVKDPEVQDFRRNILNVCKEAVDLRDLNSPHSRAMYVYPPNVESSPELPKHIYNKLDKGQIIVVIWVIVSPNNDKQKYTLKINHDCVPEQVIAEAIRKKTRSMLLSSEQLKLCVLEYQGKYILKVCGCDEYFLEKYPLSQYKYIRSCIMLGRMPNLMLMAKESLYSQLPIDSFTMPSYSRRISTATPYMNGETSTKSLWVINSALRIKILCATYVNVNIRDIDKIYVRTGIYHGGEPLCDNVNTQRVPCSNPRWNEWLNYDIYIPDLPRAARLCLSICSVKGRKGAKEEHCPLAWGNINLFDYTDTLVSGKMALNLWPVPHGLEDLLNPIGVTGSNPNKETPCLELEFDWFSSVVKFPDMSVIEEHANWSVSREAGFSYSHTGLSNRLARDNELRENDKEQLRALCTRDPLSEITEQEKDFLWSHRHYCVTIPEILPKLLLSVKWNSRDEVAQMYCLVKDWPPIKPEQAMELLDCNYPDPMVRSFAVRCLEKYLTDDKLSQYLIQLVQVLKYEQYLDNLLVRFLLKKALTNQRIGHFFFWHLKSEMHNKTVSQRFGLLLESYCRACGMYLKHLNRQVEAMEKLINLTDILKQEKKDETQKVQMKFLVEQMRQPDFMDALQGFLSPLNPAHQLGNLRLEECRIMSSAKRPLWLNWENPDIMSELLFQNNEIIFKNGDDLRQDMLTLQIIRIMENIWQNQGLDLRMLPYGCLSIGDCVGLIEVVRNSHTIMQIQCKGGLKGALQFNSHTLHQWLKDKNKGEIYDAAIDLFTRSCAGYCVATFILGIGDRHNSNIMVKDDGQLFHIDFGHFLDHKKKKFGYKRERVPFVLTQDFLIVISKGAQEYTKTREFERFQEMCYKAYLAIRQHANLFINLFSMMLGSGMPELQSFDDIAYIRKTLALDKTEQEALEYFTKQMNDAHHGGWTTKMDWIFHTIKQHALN

Target: Phosphatidylinositol 4,5-bisphosphate 3-kinase catalytic subunit alpha isoform (Mus musculus, UniProt P42337)
Assay: Biochemical Assay
Details: pH 7.4; 25 °C
Procedure: Compounds of the present invention were evaluated for potency against PI3-Kα using an in vitro kinase assay. PI3-Kα activity is measured in vitro by determining the level of phosphorylation of the substrate PI(4,5)P2. The formation of product PI(3,4,5)P3 is monitored by binding to the Grip1 PH domain in a ligand displacement fluorescence polarization (FP) assay, in which the TAMRA-labeled PI(3,4,5)P3 complexed with Grip1 PH domain is displaced by PI(3,4,5)P3 formed in the PI3-Kα reaction resulting in a decrease in FP signal.

| IC50 [µM] | SMILES |
| --- | --- |
| 7.08 | CCOC(=O)c1cccc(-c2cc3c(C)nc(NC)nc3n(C3CCCC3)c2=O)c1 [US8633204, 141] |
| 0.012 | Cc1nc(N)nc2c1cc(-c1ccc(N(C)C)nc1)c(=O)n2[C@H]1CC[C@@H](O)CC1 [US8633204, 181] |
